Laboratory results published in patent US6835371B1 (priority 1997, dated 2004).
Several values for one entry are separate records, joined by “and”; a condition that tells them apart may be missing. Equal entries are not always repeated. Where two headings read alike, the source gives them in different places.

Chains of the proteins cited; added tags and fusions are not shown.
UniProt P31645, whole entry: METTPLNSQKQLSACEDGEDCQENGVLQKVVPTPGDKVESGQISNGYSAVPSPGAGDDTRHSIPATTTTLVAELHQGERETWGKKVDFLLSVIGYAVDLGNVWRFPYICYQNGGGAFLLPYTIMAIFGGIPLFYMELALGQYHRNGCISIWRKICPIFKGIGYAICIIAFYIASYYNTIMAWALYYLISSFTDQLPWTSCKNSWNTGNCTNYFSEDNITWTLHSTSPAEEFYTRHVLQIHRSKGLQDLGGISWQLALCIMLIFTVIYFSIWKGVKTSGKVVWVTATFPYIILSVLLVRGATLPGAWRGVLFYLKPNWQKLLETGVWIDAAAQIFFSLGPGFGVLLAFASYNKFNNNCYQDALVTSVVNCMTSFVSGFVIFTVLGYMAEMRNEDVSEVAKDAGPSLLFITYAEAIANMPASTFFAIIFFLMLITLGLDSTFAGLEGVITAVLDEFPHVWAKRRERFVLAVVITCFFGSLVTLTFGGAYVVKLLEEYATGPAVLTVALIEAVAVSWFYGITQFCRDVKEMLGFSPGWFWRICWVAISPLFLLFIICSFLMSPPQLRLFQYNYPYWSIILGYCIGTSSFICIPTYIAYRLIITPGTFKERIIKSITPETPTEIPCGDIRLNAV

How the values were obtained:
[1] = molecular target: T1, human serotonin transporter (hSERT) (Homo sapiens, UniProt P31645); settings: for Ki: read-out: [125I]RTI-55 binding Ki, SERT
[2] = molecular target: T1, human serotonin transporter (hSERT); test: cell-based; type: cell-based; settings: for IC50: read-out: [3H]Serotonin Uptake IC50
[3] = molecular target: T1, human serotonin transporter (hSERT); test: biochemical

SMILES	Hill coefficient [1]	Ki [1]	Ki ([3]; [125I]RTI-55 binding Ki, SERT)	further results
O=C1CN(CCCCOC(c2ccc(F)cc2)c2ccc(F)cc2)CCN1 [Compound 31524]	−0.80 ± 0.09	1800 nM	–	Ki ([2]; Table 2, read-out: Reuptake [3H]5-HT (Ki ± SD)): 1800 ± 450 nM
CC(=O)C1(c2ccccc2)CCN(CCCCOC(c2ccc(F)cc2)c2ccc(F)cc2)CC1 [Compound 31525]	−0.75 ± 0.05	–	–	–
Fc1ccc(C(OCCCCN2CCN(c3ccccc3F)CC2)c2ccc(F)cc2)cc1 [Compound 31526]	−1.12 ± 0.04	–	30 nM	–
Fc1ccc(C(OCCCCN2CCN(c3ccc(F)cc3)CC2)c2ccc(F)cc2)cc1 [Compound 31527]	−0.98 ± 0.08	–	34 nM	–
OC1(c2ccc(Br)cc2)CCN(CCCCOC(c2ccc(F)cc2)c2ccc(F)cc2)CC1 [Compound 31530]	−0.74 ± 0.10	–	38 nM	Ki [3]: 1500 nM
OC1(c2ccccc2)CCN(CCCCOC(c2ccc(F)cc2)c2ccc(F)cc2)CC1 [Compound 31531]	−0.64 ± 0.07	–	17.9 nM	–
Fc1ccc(C(OCCCCN2CCN(c3cccc(C(F)(F)F)c3)CC2)c2ccc(F)cc2)cc1 [Compound 31532]	−0.80 ± 0.03	–	222 nM	–
OC1(c2ccc(Cl)cc2)CCN(CCCCOC(c2ccc(F)cc2)c2ccc(F)cc2)CC1 [Compound 31625]	–	–	–	IC50 ([2]; HEK-hSERT cells, in μM): ≥ 10 µM
Fc1ccc(C(OCCCCN2CCN(c3ccccc3Cl)CC2)c2ccc(F)cc2)cc1 [Compound 31626]	−0.89 ± 0.06	88 nM	–	–
O=C1c2ccccc2C(=O)N1CCCCN1CCC(O)(c2ccc(Br)cc2)CC1 [Compound 31627]	−1.01 ± 0.08	–	–	–
NC(=O)C1CCCN(CCCCOC(c2ccc(F)cc2)c2ccc(F)cc2)C1 (stereo not shown) [Compound 31628]	−0.84 ± 0.02	132 nM	–	–
OC1CCN(CCCCOC(c2ccc(F)cc2)c2ccc(F)cc2)CC1 [Compound 31648]	−0.95 ± 0.07	423 nM	–	–
O=c1[nH]c2ccccc2n1C1CCN(CCCCOC(c2ccc(F)cc2)c2ccc(F)cc2)CC1 [Compound 31649]	−0.55 ± 0.06	3.8 nM	–	–
OC1CCCN(CCCCOC(c2ccc(F)cc2)c2ccc(F)cc2)C1 (stereo not shown) [Compound 31650]	−0.75 ± 0.12	> 437 nM and 437 nM	–	IC50 ([2]; HEK-hSERT cells): 0.86 µM
Fc1ccc(C(OCCCCN2CCN(c3cccc(Cl)c3)CC2)c2ccc(F)cc2)cc1 [Compound 31651]	–	–	–	IC50 [2]: 0.92 ± 0.42 µM; Ki [3]: 148 ± 62 nM
Fc1ccc(C(OCCCCN2CCN(c3ccc(Cl)cc3)CC2)c2ccc(F)cc2)cc1 [Compound 31652]	−0.81 ± 0.06	–	33 nM	–
Fc1ccc(C(OCCCCN2CCN(c3ccccc3)CC2)c2ccc(F)cc2)cc1 [Compound 31653]	−0.81 ± 0.05	–	51 nM	–
COc1ccccc1N1CCN(CCCCOC(c2ccc(F)cc2)c2ccc(F)cc2)CC1 [Compound 31654]	−1.16 ± 0.18	255 nM	–	IC50 ([2]; HEK-hSERT cells): 1.23 ± 0.024 µM
